Reference: patent publication US20200299375A1 (TILLOTTS PHARMA, published 2020)

By UniProt entry, the sequences of proteins in these tests, tags left out. Residues count along the entry.
UniProt P01375, 77-233 limits assumed: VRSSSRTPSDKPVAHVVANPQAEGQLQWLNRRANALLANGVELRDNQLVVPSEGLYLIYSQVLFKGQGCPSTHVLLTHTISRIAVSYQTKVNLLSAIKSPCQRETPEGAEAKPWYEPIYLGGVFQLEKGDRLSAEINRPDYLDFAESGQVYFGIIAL

Tests used:
recombinant human TNFα [1] = molecular target: T1, recombinant human TNFα (human, UniProt P01375 77-233); test: cell-based or functional assay
recombinant human TNFα [2] = molecular target: T1, recombinant human TNFα; test: inhibition ELISA: biotinylated human TNFα pre-incubated with infliximab, binding to coated TNFRI-Fc detected with streptavidin-HRP [panel 17-22-B03-sc12]
recombinant human TNFα [3] = molecular target: T1, recombinant human TNFα; test: inhibition ELISA: biotinylated human TNFα pre-incubated with infliximab, binding to coated TNFRI-Fc detected with streptavidin-HRP [panels 17-22-B03-sc02 and 17-22-B03-sc08]

B1: infliximab (antibody, V domains shown)
VH: EVKLEESGGGLVQPGGSMKLSCVASGFIFSNHWMNWVRQSPEKGLEWVAEIRSKSINSATHYAESVKGRFTISRDDSKSAVYLQMTDLRTEDTGVYYCSRNYYGSTYDYWGQGTTLTVSS
VL: DILLTQSPAILSVSPGERVSFSCRASQFVGSSIHWYQQRTNGSPRLLIKYASESMSGIPSRFSGSGSGTDFTLSINTVESEDIADYYCQQSHSWPFTFGSGTNLEVKR
IC50, TNFα-induced apoptosis in L929 fibroblasts (100 pM human TNFα) (recombinant human TNFα [1]): 36.2 ng/mL | IC50 (read off the curve) (recombinant human TNFα [2]): ~50 ng/mL | IC50 (read off the curve) (recombinant human TNFα [3]): ~50 ng/mL
